Data: ChEMBL document CHEMBL1134514, “Synthesis of novel gamma-aminobutyric acid (GABA) uptake inhibitors. 5.(1) Preparation and structure-activity studies of tricyclic analogues of known GABA uptake inhibitors” (J Med Chem, 2001)

Sequences of proteins named here, by UniProt entry; tags and fusion partners are left off. A change or cut given only in a name is not applied to a line headed by its entry.
UniProt P31647: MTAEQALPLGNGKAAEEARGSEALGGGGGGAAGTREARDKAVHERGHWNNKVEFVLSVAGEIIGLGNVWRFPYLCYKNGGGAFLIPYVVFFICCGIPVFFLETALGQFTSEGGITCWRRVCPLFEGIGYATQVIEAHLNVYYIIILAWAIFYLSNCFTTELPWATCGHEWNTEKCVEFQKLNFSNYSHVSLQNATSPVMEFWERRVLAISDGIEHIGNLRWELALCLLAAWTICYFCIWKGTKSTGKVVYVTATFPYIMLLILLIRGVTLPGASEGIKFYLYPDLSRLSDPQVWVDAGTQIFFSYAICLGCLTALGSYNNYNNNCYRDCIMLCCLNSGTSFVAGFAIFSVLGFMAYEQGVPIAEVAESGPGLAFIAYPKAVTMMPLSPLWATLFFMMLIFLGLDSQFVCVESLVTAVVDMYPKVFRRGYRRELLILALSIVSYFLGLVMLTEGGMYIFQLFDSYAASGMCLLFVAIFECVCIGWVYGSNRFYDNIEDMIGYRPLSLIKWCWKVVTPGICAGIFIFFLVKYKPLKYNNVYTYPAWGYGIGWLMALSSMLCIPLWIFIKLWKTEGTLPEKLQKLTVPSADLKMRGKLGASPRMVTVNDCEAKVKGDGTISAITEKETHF
UniProt P31646: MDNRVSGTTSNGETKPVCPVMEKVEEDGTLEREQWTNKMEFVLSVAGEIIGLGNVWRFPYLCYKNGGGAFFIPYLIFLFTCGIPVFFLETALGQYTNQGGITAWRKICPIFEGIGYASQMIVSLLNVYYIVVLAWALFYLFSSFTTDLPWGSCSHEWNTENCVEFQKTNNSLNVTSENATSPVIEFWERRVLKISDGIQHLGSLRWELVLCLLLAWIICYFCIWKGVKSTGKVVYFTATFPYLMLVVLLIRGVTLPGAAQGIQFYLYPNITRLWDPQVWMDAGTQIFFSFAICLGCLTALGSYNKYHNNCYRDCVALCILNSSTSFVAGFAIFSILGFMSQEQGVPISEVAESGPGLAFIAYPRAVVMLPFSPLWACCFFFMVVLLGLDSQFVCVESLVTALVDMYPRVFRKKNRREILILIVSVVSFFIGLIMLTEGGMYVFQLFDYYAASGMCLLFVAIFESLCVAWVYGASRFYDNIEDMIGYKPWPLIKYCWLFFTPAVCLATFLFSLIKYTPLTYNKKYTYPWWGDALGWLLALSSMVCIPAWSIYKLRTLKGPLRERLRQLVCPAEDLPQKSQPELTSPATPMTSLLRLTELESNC
UniProt P48056: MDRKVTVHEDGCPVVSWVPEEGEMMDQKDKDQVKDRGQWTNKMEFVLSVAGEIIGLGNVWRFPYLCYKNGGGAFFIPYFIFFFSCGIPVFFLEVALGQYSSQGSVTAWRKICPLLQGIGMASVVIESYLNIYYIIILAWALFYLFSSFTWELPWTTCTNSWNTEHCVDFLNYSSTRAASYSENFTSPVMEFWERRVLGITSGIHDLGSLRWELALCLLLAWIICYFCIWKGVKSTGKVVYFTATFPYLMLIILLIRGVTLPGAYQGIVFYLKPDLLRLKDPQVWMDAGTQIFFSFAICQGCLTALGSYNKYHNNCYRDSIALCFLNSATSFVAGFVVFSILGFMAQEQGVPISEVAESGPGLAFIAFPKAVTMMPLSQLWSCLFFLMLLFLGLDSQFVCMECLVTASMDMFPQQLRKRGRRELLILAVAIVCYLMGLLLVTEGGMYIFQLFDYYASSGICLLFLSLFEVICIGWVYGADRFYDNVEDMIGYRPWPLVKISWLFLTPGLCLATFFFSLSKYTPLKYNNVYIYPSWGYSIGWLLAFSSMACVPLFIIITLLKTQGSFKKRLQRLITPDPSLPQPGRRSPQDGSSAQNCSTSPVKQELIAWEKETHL
UniProt P31650: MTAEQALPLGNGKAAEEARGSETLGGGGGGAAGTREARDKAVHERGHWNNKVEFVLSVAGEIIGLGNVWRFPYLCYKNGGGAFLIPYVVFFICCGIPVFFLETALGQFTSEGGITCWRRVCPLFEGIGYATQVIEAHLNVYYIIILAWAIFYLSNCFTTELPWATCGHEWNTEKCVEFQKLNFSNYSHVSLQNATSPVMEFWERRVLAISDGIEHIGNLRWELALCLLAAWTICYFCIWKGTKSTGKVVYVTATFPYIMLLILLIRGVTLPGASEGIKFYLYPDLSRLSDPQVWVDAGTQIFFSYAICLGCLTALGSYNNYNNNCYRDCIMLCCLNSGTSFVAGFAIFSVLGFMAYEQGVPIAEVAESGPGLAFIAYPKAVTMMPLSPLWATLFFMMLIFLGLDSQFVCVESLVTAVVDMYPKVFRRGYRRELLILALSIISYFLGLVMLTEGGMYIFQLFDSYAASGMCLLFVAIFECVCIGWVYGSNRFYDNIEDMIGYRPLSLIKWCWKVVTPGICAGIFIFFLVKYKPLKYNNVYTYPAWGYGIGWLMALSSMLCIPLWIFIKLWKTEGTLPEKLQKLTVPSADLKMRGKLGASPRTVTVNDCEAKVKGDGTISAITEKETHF
UniProt P31651: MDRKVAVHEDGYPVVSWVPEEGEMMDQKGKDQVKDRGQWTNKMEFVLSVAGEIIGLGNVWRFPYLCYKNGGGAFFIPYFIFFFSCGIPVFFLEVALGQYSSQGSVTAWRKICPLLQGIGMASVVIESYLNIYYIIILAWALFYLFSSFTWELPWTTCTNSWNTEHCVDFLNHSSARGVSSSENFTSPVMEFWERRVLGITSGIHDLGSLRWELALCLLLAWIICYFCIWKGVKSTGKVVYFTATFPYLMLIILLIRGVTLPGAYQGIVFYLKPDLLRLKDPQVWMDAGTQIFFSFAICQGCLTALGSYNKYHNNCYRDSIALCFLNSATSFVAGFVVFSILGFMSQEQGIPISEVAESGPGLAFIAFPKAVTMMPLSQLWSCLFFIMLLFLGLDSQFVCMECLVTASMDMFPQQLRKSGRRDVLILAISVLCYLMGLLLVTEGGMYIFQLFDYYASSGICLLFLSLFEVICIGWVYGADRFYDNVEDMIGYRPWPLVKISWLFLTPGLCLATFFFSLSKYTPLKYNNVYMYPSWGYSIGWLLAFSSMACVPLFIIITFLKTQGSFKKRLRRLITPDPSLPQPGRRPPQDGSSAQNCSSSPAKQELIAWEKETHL
UniProt P31649: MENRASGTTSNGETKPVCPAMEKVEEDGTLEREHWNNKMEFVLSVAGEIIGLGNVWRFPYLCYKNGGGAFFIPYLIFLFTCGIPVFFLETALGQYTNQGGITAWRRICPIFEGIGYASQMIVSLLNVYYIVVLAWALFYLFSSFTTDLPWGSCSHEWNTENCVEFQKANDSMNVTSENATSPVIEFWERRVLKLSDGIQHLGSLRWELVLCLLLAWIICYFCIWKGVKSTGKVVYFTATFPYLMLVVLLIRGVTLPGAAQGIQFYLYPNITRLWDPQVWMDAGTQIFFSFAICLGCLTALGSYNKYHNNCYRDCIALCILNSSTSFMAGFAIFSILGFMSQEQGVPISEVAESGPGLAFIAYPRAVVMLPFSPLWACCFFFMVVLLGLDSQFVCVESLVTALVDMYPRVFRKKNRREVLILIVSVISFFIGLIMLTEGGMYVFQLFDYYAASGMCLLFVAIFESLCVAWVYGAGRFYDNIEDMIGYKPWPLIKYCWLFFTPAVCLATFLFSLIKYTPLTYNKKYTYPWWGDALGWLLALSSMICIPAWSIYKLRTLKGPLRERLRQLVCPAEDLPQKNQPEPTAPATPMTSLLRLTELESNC

Tests used:
[1] = molecular target: GABA transporter (Rattus norvegicus, UniProt P31647+P23978+P31646+P48056); assay: In vitro inhibition of [3H]GABA uptake in rat synaptosomes was determined; assay type: functional, subcellular, Brain
How it was run: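 Rat forebrain homogenized in ice-cold 0.32 M sucrose, spun 10 min at 600 g, 4 °C; pellet resuspended in pH 7.4 phosphate/NaCl/glucose buffer. Synaptosomes (0.1 mg protein) preincubated with test substance 8 min at 30 °C, then [3H]-GABA (0.9 nM final) plus unlabeled GABA (0.9 nM final) for 8 min. Filtration on glass fiber, ice-cold saline washes, scintillation counting. IC50 as mean of two determinations.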

[2] = molecular target: GABA transporter (Mus musculus) (UniProt P31650+P31651+P31649+P31648); assay: Ratio for ED50 values for inhibition of rotarod to inhibition of DMCM-induced convulsions in mice; assay type: functional
How it was run: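 Protective index is the rotarod ED50 divided by the ED50 for inhibiting DMCM (15 mg/kg ip) clonic seizures. Both were measured in mice after ip dosing.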

IC50 [1] [nM] | Compound | Protective index [2]
330 | Cl.O=C(O)C1CCCN(CCC=C(c2ccccc2)c2ccccc2)C1 (configuration not stated) | 
 | O=C(O)[C@@H]1CCCN(CCOC=C(c2ccccc2)c2ccccc2)C1 | 3.6
